From US20240360082A1, “SUBSTITUTED PYRIDONE COMPOUNDS USEFUL TO TREAT ORTH[…]” (priority 2021, published 2024)
Where two headings read alike, the source gives them in different places.

System: influenza virus (multiple flu strains)
Assay: organism not typed
Conditions: MDCK
[1] = read-out: NA Alaska H3N2 IC50, NA assay, Alaska H3N2 strain
[2] = read-out: NA CAL H1N1 IC50, NA assay, CAL H1N1 strain

Row | SMILES | IC50 [1] [µM] | IC50 [2] [µM] | IC50 (read-out: NA Alaska H3N2, NA assay, Alaska H3N2 strain) [µM] | IC50 (read-out: NA CAL H1N1, NA assay, CAL H1N1 strain) [µM]
1 | COc1cc(-c2cc(C(N)=O)c(=O)[nH]c2C(F)(F)F)ccc1OCC1COCCO1 (centres unmarked) [Example 244, 5-(4-((1,4-dioxan-2-yl)methoxy)-3-methoxyphenyl)-2-oxo-6-(trifluoromethyl)-1,2-dihydropyridine-3-carboxamide] | 10 to 25 |  |  | 
2 | NC(=O)c1cc(-c2ccc(OCC3COCCO3)cc2F)c(C(F)(F)F)[nH]c1=O (centres unmarked) [Example 245, 5-(4-((1,4-dioxan-2-yl)methoxy)-2-fluorophenyl)-2-oxo-6-(trifluoromethyl)-1,2-dihydropyridine-3-carboxamide] | 0.1 to 1 | 10 to 25 |  | 
3 | NC(=O)c1cc(-c2ccc(OCC3COCCN3)cc2)c(C(F)(F)F)[nH]c1=O (centres unmarked) [Example 246, 5-(4-(morpholin-3-ylmethoxy)phenyl)-2-oxo-6-(trifluoromethyl)-1,2-dihydropyridine-3-carboxamide] | 10 to 25 |  |  | 
4 | CN1CCOCC1COc1ccc(-c2cc(C(N)=O)c(=O)[nH]c2C(F)(F)F)cc1 (centres unmarked) [Example 247, 5-(4-((4-methylmorpholin-3-yl)methoxy)phenyl)-2-oxo-6-(trifluoromethyl)-1,2-dihydropyridine-3-carboxamide] | 0.1 to 1 | 1 to 5 |  | 
5 | NC(=O)c1cc(-c2ccc(OCC3COCC(=O)N3)cc2)c(C(F)(F)F)[nH]c1=O (centres unmarked) [Example 250, 2-oxo-5-(4-((5-oxomorpholin-3-yl)methoxy)phenyl)-6-(trifluoromethyl)-1,2-dihydropyridine-3-carboxamide] | 1 to 5 | 25 to 50 |  | 
6 | CN1C(=O)COCC1COc1ccc(-c2cc(C(N)=O)c(=O)[nH]c2C(F)(F)F)cc1 (centres unmarked) [Example 251, 5-(4-((4-methyl-5-oxomorpholin-3-yl)methoxy)phenyl)-2-oxo-6-(trifluoromethyl)-1,2-dihydropyridine-3-carboxamide] | 1 to 5 |  |  | 
7 | CS(=O)(=O)C1(COc2ccc(-c3cc(C(N)=O)c(=O)[nH]c3C(F)(F)F)cc2)CC1 [Example 252, 5-(4-((1-(methylsulfonyl)cyclopropyl)methoxy)phenyl)-2-oxo-6-(trifluoromethyl)-1,2-dihydropyridine-3-carboxamide] | 0.1 to 1 | 1 to 5 |  | 
8 | NC(=O)c1cc(-c2ccc(OCC3(S(=O)(=O)C4CC4)CC3)cc2)c(C(F)(F)F)[nH]c1=O [Example 253, 5-(4-((1-(cyclopropylsulfonyl)cyclopropyl)methoxy)phenyl)-2-oxo-6-(trifluoromethyl)-1,2-dihydropyridine-3-carboxamide] | 0.1 to 1 | 1 to 5 |  | 
9 | COCCOc1ccc(-c2cc(C(N)=O)c(=O)[nH]c2C(F)(F)F)cc1 [Example 254, 5-(4-(2-methoxyethoxy)phenyl)-2-oxo-6-(trifluoromethyl)-1,2-dihydropyridine-3-carboxamide] | 0.1 to 1 | 1 to 5 |  | 
10 | NC(=O)c1cc(-c2ccc(OCCO)cc2)c(C(F)(F)F)[nH]c1=O [Example 255, 5-(4-(2-hydroxyethoxy)phenyl)-2-oxo-6-(trifluoromethyl)-1,2-dihydropyridine-3-carboxamide] | 0.1 to 1 | 5 to 10 |  | 
11 | CS(=O)(=O)CCOc1ccc(-c2cc(C(N)=O)c(=O)[nH]c2C(F)(F)F)cc1 [Example 256, 5-(4-(2-(methylsulfonyl)ethoxy)phenyl)-2-oxo-6-(trifluoromethyl)-1,2-dihydropyridine-3-carboxamide] | 0.1 to 1 | 5 to 10 |  | 
12 | NC(=O)c1cc(-c2ccc(OCCn3ccnc3)cc2)c(C(F)(F)F)[nH]c1=O [Example 258, 5-(4-(2-(1H-imidazol-1-yl)ethoxy)phenyl)-2-oxo-6-(trifluoromethyl)-1,2-dihydropyridine-3-carboxamide] |  |  | 1 to 5 | 25 to 50
13 | NC(=O)c1cc(-c2ccc(OCCN3CCOCC3)cc2)c(C(F)(F)F)[nH]c1=O [Example 259, 5-(4-(2-morpholinoethoxy)phenyl)-2-oxo-6-(trifluoromethyl)-1,2-dihydropyridine-3-carboxamide] | 0.1 to 1 | 5 to 10 |  | 
